# Measured values published in PubChem BioAssay AID504708 (Sanford-Burnham Center for Chemical Genomics, 2011).
# By UniProt entry, the sequences of proteins in these tests, tags left out.
# UniProt Q2TB90, whole entry: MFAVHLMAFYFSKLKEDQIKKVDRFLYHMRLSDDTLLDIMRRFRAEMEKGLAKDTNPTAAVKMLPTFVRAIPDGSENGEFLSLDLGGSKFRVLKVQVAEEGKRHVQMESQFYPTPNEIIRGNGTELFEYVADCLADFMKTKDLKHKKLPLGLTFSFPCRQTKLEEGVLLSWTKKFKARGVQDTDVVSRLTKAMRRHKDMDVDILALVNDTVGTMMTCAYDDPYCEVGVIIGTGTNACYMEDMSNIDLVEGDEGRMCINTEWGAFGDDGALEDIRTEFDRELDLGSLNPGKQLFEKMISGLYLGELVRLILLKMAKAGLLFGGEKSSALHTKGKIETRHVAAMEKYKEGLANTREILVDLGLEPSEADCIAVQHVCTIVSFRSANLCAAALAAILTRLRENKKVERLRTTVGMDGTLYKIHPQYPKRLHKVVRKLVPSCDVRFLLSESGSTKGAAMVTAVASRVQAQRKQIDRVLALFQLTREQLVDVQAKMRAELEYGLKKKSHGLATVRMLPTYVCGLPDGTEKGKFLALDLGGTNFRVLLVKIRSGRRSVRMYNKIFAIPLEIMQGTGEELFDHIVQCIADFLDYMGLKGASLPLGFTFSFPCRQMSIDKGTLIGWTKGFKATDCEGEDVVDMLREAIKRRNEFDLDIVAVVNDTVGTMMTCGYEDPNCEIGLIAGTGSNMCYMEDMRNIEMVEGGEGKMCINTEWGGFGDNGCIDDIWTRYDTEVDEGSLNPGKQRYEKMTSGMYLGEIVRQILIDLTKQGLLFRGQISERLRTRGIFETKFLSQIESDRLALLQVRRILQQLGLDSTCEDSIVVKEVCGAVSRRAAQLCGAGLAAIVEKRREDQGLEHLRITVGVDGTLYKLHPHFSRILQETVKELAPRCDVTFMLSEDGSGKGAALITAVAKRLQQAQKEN
# Only a part is listed here, and it is no random draw. The source made the active and inactive calls.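 The calls were made as follows: active = inhibition at or below a set negative limit, negative inhibition meaning the enzyme was activated; inactive = the rest.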
# Target: Hexokinase HKDC1 (Homo sapiens) (UniProt Q2TB90)
# Experiment: HKDC1 hexokinase activators, confirmation, biochemical, single concentration (AID 504708)
# Conditions: recombinant HKDC1, G6PDH/diaphorase resazurin fluorescence; at 20 µM; hits give low values
smiles,measurement,value
CC1=C2N=C(C=C3N=C(C(C)=C4[N-][C@@](C)([C@@H]5N=C1[C@](C)(CCC(=O)NC[C@@H](C)OP(=O)([O-])O[C@H]1[C@@H](O)[C@@H](n6cnc7cc(C)c(C)cc76)O[C@@H]1CO)[C@H]5CC(N)=O)[C@@](C)(CC(N)=O)[C@@H]4CCC(N)=O)[C@@](C)(CC(N)=O)[C@@H]3CCC(N)=O)C(C)(C)[C@@H]2CCC(N)=O.[C-]#N.[Co+3],inhibition,inactive: -36.7%
